Protein sequences, listed by entry. Tags and fused reporters are not part of them. Chains listed by the source or under a name are the forms on record and can include a tag or linker. Residues count along the entry.
UniProt Q9UM73, with tags, fused parts or gaps: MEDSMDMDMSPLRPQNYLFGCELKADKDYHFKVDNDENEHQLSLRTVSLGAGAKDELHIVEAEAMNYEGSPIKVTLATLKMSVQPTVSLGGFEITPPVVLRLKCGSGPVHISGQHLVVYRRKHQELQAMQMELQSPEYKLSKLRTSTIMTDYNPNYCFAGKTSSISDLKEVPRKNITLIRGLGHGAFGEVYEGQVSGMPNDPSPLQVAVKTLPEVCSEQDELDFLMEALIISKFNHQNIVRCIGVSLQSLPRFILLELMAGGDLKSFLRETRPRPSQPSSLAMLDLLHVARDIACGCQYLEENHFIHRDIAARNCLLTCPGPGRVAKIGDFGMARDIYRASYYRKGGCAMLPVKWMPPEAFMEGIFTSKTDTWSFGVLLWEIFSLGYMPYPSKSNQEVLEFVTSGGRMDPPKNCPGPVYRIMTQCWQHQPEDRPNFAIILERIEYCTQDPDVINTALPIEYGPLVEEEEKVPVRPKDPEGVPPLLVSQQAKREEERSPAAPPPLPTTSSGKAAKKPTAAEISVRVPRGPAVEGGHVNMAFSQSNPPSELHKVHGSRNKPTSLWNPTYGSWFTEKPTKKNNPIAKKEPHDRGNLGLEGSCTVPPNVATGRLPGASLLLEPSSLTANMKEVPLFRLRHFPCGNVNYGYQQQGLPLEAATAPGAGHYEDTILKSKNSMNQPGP
UniProt Q9UM73, 19-1620: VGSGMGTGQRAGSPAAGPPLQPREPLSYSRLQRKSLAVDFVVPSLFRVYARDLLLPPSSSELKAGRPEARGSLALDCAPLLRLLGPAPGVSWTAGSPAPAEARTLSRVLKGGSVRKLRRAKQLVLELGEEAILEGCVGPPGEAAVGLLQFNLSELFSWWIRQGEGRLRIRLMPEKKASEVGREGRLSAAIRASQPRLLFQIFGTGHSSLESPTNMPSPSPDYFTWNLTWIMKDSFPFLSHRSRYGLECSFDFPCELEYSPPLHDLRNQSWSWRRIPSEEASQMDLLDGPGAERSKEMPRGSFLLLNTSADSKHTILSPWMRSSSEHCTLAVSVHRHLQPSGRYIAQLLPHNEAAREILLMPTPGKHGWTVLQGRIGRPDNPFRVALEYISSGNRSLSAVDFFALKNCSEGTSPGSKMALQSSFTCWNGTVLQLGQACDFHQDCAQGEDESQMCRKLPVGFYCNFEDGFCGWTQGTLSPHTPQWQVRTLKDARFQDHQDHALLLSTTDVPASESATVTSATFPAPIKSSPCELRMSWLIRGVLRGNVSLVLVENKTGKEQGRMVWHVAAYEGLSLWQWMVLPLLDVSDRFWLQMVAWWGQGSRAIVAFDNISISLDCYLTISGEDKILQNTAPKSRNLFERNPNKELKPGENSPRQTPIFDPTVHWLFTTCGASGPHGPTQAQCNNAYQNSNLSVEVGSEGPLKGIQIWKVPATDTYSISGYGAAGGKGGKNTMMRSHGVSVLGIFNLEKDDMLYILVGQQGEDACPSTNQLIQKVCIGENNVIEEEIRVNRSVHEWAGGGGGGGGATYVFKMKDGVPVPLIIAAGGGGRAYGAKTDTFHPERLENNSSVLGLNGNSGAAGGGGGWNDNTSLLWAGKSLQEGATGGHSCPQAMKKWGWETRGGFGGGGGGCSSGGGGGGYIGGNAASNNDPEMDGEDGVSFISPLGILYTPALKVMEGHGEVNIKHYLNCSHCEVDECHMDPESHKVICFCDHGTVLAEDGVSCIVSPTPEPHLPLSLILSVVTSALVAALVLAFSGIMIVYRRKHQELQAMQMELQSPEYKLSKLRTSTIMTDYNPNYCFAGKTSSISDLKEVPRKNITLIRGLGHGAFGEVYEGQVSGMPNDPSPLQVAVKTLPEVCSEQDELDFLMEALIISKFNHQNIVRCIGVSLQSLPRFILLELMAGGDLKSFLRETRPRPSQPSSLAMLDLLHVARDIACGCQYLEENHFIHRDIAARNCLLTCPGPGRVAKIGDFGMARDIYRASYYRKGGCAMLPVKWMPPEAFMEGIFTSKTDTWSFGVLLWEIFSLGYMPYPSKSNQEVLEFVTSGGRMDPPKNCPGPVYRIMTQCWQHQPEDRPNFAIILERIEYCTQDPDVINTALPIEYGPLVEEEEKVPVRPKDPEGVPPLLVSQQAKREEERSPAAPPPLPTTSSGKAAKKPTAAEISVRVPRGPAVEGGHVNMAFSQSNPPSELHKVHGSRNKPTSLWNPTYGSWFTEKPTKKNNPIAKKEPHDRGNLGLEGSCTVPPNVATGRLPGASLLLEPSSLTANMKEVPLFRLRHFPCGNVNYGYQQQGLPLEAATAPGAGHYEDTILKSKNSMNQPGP
UniProt Q05397, whole entry: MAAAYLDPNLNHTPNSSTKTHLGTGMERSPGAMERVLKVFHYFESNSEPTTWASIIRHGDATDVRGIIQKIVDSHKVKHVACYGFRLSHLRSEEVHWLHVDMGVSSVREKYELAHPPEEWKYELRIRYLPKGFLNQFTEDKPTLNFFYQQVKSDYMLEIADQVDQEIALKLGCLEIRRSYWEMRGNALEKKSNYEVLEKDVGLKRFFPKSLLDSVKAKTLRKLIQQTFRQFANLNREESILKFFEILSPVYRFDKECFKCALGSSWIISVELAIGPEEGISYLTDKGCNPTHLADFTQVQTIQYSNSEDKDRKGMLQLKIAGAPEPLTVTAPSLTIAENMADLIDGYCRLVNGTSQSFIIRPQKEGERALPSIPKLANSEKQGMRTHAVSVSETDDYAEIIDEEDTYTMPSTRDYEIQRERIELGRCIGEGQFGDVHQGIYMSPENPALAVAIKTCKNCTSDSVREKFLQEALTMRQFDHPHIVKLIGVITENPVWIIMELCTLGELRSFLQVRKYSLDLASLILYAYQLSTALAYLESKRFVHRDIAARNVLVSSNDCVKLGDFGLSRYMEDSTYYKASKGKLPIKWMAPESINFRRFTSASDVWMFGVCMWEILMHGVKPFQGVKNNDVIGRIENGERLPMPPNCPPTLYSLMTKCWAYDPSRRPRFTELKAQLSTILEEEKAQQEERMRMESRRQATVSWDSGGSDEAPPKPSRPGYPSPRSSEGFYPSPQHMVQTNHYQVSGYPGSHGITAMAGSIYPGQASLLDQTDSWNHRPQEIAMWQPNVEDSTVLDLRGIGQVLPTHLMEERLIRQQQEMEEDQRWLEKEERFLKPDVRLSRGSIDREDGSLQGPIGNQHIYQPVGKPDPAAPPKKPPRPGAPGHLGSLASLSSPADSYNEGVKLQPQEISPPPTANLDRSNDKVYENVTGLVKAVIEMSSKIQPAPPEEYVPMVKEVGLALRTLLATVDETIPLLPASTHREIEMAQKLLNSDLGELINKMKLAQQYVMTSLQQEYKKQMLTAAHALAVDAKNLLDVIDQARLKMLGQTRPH

In US10632119B2, “Fused bicyclic 2,4-diaminopyrimidine derivative as a dual ALK and FAK inhibitor” (priority 2012, dated 2020):

Key:
ALK [1] = molecular target: T1, ALK (Homo sapiens, UniProt Q9UM73); assay: ALK cellular assay; type: cell-based
FAK = FAK (Homo sapiens, UniProt Q05397); assay: FAK cellular assay; type: cell-based
ALK [2] = molecular target: T1, ALK; assay: ALK enzymatic assay; type: biochemical

Compound `CNC(=O)c1ccccc1Nc1nc(Nc2ccc3c(c2OC)CCC[C@H](N2CCN(CCO)CC2)C3)ncc1Cl` [CEP-37440, 2-[[5-chloro-2-[[(6S)-6-[4-(2-hydroxyethyl)piperazin-1-yl]-1-methoxy-6,7,8,9-tetrahydro-5H-benzo[7]annulen-2-yl]amino]pyrimidin-4-yl]amino]-N-methyl-benzamide] has an IC50 (ALK [1]; 75% human plasma, read-out: ALK cellular IC50 in 75% human plasma) of 120 nM, an IC50 (ALK [1]; 75% murine plasma, read-out: ALK cellular IC50 in 75% murine plasma) of 200 nM and an IC50 (ALK [1]; read-out: ALK cellular IC50) of 40 nM. The IC50 (FAK) was 82 nM and the IC50 (ALK [2]) was 3.5 nM.
